Assay results taken from patent publication US12629359B2, “Structural analogues of methylphenidate as Parkinson's disease-modifying agents” (UNIVERSITA' DEGLI STUDI DI BRESCIA, priority 2020, dated 2026).

Sequences of proteins named here, by UniProt entry; tags and fusion partners are left off. A change or cut given only in a name is not applied to a line headed by its entry.
UniProt O14994: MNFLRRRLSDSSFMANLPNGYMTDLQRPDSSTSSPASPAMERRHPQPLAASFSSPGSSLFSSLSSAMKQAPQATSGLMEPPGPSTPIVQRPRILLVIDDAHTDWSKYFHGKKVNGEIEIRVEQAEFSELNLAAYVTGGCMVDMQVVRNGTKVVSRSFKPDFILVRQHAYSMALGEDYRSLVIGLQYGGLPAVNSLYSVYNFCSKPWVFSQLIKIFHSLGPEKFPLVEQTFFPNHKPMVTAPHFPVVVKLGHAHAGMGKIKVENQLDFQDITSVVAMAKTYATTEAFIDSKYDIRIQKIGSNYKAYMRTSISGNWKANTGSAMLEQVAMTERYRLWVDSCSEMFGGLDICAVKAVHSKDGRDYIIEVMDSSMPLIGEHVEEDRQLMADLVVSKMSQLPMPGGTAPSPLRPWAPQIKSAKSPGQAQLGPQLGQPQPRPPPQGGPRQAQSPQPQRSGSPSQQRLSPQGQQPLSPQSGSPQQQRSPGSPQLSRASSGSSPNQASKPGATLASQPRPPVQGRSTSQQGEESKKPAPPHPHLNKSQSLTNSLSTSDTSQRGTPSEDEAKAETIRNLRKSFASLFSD

Assays:
[1] = tested on: alpha-synuclein aggregation in primary mesencephalic neurons; assay: Alpha-synuclein aggregation in primary mouse midbrain neurons exposed to glucose deprivation; format: cell-based; settings: I-threo, VI-threo 50 and 100 nM, MPH 100 nM
[2] = biological target: T1, alpha-synuclein/Synapsin III interaction (Homo sapiens, UniProt O14994+P37840); assay: Acceptor photobleaching FRET of alpha-synuclein/Synapsin III interaction in neuronal-differentiated SK-N-SH cells; format: cell-based; settings: 10 μM, 15 min, neuronally differentiated SK-N-SH cells
T1 construct: expressed in transfected cells; host or cells: neuronal-differentiated (retinoic acid) human SK-N-SH neuroblastoma cells, transient transfection with Lipofectamine 3000
Method: The ability of the different compound to stimulate alpha-synuclein/Synapsin III interaction was evaluated by acceptor photobleaching FRET or FLIM in neuronal-like cells. In particular, we used neuronal-differentiated SK—N—SH neuroblastoma cells transiently transfected with red fluorescent protein (RFP)-tagged human wild type alpha-synuclein and green fluorescent protein (GFP)-tagged the human 63 kDa Synapsin III isoform.
Acceptor photobleaching FRET microscopy allows an accurate evaluation of protein-protein interaction through the measurement of FRET efficiency. This parameter is indicative of the increase of donor fluorescence after complete photobleaching of the acceptor fluorescence, within a FRET pair of fluorophores (where the emission wavelength of a donor falls within the excitation wavelength of an acceptor). […] We thus measured donor (GFP-Synapsin III) fluorescence after the complete photobleaching of the acceptor (RFP-alpha-synuclein) in the cells that were treated for 15 min with MPH, I-threo, IV-threo, V-threo or VI-threo at 10 μM concentration. […] Fixed cells were analyzed by means of a Zeiss confocal laser microscope LSM 880 (Carl Zeiss) with the laser set on A=488-543. After identifying double positive cells three-to-six regions of interest (ROI) were analyzed for 4 series. […]

COC(=O)C(c1ccccc1)C1CCCCN1 (centres unmarked) [MPH, Methylphenidate]
alpha-synuclein inclusion formation (total immunofluorescence intensity and particle size) [1]: did not reduce alpha-synuclein aggregation
% FRET efficiency change vs control untreated cells [2]: +3.4%
